Patent EP1296974B1, “2-CYANOPYRROLIDINE DERIVATIVES AND THEIR USE AS MEDICAMENTS” (NOVARTIS AG, priority 2000, dated 2001)
pIC50: −log10 of the molar value. Where a name gives a salt, the structure may show the parent alone.

Protein sequences, listed by entry. Tags and fused reporters are not part of them. Residues count along the entry.
UniProt P14740, 37-767 limits assumed: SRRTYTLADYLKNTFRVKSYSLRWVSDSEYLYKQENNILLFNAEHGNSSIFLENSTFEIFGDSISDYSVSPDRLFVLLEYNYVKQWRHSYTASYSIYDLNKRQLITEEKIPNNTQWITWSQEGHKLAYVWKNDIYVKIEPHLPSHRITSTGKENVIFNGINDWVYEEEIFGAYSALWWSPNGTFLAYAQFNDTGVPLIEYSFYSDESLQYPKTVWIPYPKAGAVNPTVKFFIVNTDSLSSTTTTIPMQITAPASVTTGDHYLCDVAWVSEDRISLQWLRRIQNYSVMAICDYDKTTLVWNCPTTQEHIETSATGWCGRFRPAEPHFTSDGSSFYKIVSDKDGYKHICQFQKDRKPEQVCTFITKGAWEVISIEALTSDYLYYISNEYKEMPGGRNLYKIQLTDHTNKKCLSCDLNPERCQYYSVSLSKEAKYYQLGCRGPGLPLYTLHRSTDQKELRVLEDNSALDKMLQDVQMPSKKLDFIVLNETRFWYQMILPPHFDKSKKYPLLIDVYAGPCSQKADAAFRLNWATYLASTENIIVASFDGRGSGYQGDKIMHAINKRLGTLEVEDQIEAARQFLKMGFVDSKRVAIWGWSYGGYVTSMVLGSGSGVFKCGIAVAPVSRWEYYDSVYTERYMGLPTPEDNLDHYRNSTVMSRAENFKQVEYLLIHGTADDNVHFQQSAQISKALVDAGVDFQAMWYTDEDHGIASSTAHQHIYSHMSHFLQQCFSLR

Molecular target: T1, rat plasma DPP-IV (Rattus norvegicus, UniProt P14740)
T1 construct: 5 µl of plasma are added to 96-well flat-bottom micortiter plates; from tissue; host or cells: rat plasma
Experiment: DPP-IV activity in rat plasma (modified Kubota assay)
Type: biochemical

Compound | pIC50
N#Cc1ccc(NC2CCC(NCC(=O)N3CCC[C@H]3C#N)CC2)nc1 (stereo partly drawn) [Ex. 2L, 1-[[[4-[(5-cyano-2-pyridinyl)amino]cyclohexyl]amino]acetyl]-2-cyano-(S)-pyrrolidine, dihydrochloride] | 8.40
N#C[C@@H]1CCCN1C(=O)CNC1CCC(Nc2nc3ccccc3s2)CC1 (stereo partly drawn) [Ex. 2V, 1-[[[4-[(2-benzothiazolyl)amino]cyclohexyl]amino]acetyl]-2-cyano-(S)-pyrrolidine, dihydrochloride] | 7.96
N#C[C@@H]1CCCN1C(=O)CNC1CCC(NC(=O)C2CCCCC2)CC1 (stereo partly drawn) [Ex. 2X, 1-[[[4-[(cyclohexylcarbonyl)amino]cyclohexyl]amino]acetyl]-2-cyano-(S)-pyrrolidine monohydrochloride] | 7.70
N#C[C@@H]1CCCN1C(=O)CNC1CCN(C(=O)C2CCCCC2)CC1 [Ex. 4A, 1-[[[1-(cyclohexylcarbonyl)-4-piperidinyl]amino]acetyl]-2-cyano-(S)-pyrrolidine, monohydrochloride] | 7.70
